Only a part is listed here, and it is no random draw. Results filed as inconclusive are left out. Activity calls are given as the source filed them. The calls were made as follows, unless noted: active = hit-call score of the fitted dose curve at least 0.9, where 1 is the maximum; inactive = score below 0.9.
Tests used:
[1] = BSK_LPS_SRB: Viability Assessment in the BioMAP Diversity Plus: LPS Assay (AID 2283079); conditions: primary human HUVEC with PBMC;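 also: total protein by sulforhodamine B absorbance as a cytotoxicity measure; measured one day after compound addition; fitted in both directions against DMSO so loss or gain of signal counts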
Summary of the method: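 Co-culture of human umbilical vein endothelial cells and PBMC, read 24 h after dosing. Total protein by 0.1% SRB staining after 10% TCA fixation, absorbance at 560 nm; bidirectional fit against DMSO.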

Sequences of proteins named here, by UniProt entry; tags and fusion partners are left off.
UniProt P16581, whole entry: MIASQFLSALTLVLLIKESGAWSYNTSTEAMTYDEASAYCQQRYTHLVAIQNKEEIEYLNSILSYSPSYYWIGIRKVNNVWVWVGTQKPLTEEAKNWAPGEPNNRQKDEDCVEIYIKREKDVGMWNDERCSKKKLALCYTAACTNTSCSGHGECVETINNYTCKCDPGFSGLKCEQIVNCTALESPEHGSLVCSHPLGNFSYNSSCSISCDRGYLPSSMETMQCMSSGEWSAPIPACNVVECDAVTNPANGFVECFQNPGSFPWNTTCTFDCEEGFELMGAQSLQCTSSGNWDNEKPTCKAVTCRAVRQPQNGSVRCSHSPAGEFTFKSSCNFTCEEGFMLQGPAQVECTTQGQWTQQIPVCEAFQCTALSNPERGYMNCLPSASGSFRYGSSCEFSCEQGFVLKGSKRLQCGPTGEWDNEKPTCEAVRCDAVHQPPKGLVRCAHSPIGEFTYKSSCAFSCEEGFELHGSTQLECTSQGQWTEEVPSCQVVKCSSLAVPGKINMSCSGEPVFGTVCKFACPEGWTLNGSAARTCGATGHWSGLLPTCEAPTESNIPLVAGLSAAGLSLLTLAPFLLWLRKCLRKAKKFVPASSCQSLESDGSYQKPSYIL
UniProt P35372, whole entry: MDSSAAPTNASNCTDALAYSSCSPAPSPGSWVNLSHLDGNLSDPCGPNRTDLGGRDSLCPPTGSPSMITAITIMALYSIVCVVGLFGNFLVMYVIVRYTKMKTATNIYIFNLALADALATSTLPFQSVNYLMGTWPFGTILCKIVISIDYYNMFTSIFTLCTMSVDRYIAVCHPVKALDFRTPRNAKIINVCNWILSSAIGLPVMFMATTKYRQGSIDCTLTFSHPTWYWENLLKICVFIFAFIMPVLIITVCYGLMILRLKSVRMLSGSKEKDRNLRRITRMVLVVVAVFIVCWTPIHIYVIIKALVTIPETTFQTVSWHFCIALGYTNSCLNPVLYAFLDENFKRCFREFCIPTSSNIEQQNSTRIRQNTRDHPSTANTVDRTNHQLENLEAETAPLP
UniProt P10275, whole entry: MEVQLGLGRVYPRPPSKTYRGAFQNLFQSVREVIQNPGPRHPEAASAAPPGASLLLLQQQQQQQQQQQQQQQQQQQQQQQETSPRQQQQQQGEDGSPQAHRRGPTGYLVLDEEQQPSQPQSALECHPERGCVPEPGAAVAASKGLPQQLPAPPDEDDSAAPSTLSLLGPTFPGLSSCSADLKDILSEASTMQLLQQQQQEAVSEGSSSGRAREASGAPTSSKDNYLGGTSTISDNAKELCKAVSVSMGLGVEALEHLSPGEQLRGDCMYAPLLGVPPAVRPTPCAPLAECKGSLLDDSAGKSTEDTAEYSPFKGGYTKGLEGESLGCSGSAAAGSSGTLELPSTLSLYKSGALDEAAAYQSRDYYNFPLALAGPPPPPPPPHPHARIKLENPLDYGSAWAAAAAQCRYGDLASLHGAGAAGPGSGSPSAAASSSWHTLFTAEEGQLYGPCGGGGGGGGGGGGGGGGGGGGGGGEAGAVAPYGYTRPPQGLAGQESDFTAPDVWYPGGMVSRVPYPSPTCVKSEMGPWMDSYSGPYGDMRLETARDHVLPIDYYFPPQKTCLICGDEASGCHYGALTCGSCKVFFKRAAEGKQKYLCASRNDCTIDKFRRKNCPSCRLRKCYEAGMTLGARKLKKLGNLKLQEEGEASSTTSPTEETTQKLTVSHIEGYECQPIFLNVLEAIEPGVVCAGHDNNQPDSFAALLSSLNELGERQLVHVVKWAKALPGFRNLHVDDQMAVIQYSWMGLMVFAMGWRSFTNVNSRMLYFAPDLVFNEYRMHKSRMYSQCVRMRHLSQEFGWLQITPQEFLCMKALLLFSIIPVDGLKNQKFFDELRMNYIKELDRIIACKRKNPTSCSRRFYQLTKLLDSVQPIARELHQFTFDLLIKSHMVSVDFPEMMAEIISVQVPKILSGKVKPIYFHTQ
UniProt P08684, whole entry: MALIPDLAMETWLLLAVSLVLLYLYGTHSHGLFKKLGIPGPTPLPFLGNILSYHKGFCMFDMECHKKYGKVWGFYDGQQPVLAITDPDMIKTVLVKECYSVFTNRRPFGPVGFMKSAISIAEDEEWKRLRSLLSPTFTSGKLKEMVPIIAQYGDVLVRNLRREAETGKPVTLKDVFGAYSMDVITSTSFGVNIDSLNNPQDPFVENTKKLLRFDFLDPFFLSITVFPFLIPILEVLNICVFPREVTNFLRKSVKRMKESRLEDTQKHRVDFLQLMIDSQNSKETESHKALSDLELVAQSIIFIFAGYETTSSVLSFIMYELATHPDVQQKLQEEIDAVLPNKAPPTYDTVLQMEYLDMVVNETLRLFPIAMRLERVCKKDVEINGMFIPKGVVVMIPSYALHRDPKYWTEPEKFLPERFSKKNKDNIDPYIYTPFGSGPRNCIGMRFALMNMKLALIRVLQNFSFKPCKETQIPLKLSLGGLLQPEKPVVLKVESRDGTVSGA

[2] = read-out: Interleukin-1 alpha (IL1a), IL1A (gene 3552); experiment: BSK_LPS_IL1a: BioMAP Diversity Plus: LPS Assay for Interleukin-1 alpha (IL1a) Biomarker Activity (AID 2283080); conditions: actives raise or lower the signal; primary human HUVEC with PBMC
Summary of the method: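 Human umbilical vein endothelial cells co-cultured with PBMC and stimulated with LPS; IL-1a measured by ELISA 24 h after dosing. Bidirectional fitting against DMSO; cytotoxicity checked by SRB staining in parallel cultures.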

[3] = BSK_LPS_PGE2: BioMAP Diversity Plus: LPS Assay for Prostaglandin E2 (PGE2) Biomarker Activity (AID 2283082); conditions: actives raise or lower the signal; primary human HUVEC with PBMC;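 also: secreted prostaglandin E2 measured by ELISA in LPS-stimulated co-culture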
Summary of the method: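 ELISA read-out of PGE2 from human umbilical vein endothelial cells co-cultured with peripheral blood mononuclear cells under LPS, 24 h post-dose. Gain or loss of signal scored relative to DMSO baseline.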

[4] = read-out: Macrophage colony-stimulating factor (MCSF), CSF1 (gene 1435); experiment: BSK_LPS_MCSF: BioMAP Diversity Plus: LPS Assay for Macrophage colony-stimulating factor (MCSF) Biomarker Activity (AID 2283083); conditions: actives raise or lower the signal; primary human HUVEC with PBMC
Summary of the method: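 HUVEC–PBMC co-culture, M-CSF measured by ELISA 24 h after chemical dosing. Fitted in both directions relative to DMSO as negative control; overt cytotoxicity assessed by SRB total-protein staining in parallel cultures.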

[5] = read-out: Tissue Factor, F3 (gene 2152); experiment: BSK_LPS_TissueFactor: BioMAP Diversity Plus: LPS Assay for Tissue Factor Biomarker Activity (AID 2283084); conditions: actives raise or lower the signal; primary human HUVEC with PBMC
Summary of the method: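 Human umbilical vein endothelial cells co-cultured with PBMC were dosed with compound. Cell-surface CD142 was measured by ELISA 24 h later. Activity was fitted bidirectionally against DMSO, with SRB total-protein staining in parallel cultures for cytotoxicity.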

[6] = read-out: Vascular cell adhesion molecule 1 (VCAM1), VCAM1 (gene 7412); experiment: BSK_LPS_VCAM1: BioMAP Diversity Plus: LPS Assay for Vascular cell adhesion molecule 1 (VCAM1) Biomarker Activity (AID 2283086); conditions: actives raise or lower the signal; primary human HUVEC with PBMC
Summary of the method: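 ELISA read-out of VCAM-1 at 24 h post-dosing in an LPS-driven HUVEC/PBMC primary human co-culture; gain or loss of signal fitted bidirectionally against DMSO baseline. Cytotoxicity tracked in parallel cultures by SRB total-protein staining.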

CD69, CD69 (gene 969) = experiment: BSK_SAg_CD69: BioMAP Diversity Plus: SAg Assay for CD69 Biomarker Activity (AID 2283089); conditions: actives raise or lower the signal; primary human HUVEC with PBMC;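 also: cell surface CD69 protein quantified by ELISA with fluorescence detection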
Summary of the method: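 HUVEC co-cultured with PBMC were dosed with chemical, and CD69 was measured by ELISA with fluorescence read-out 24 h later. Bidirectional curve fitting used DMSO as negative control and activity baseline.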

[7] = read-out: Monocyte Chemoattractant Protein-1 (MCP1), CCL2 (gene 6347); experiment: BSK_SAg_MCP1: BioMAP Diversity Plus: SAg Assay for Monocyte Chemoattractant Protein-1 (MCP1) Biomarker Activity (AID 2283090); conditions: actives raise or lower the signal; primary human HUVEC with PBMC
Summary of the method: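 Values derive from bidirectional fitting of ELISA-measured MCP1 against DMSO controls. Readings were taken 24 h after dosing human vascular endothelial cells co-cultured with peripheral blood mononuclear cells under superantigen stimulation.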

[8] = read-out: E-selectin (Homo sapiens) (UniProt P16581); experiment: BSK_SAg_Eselectin: BioMAP Diversity Plus: SAg Assay for Eselectin Biomarker Activity (AID 2283091); conditions: actives raise or lower the signal; primary human HUVEC with PBMC
Summary of the method: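 Human umbilical vein endothelial cells co-cultured with peripheral blood mononuclear cells, SAg system. E-selectin is measured by ELISA 24 h after dosing and fitted bidirectionally against DMSO. Cytotoxicity is checked by SRB staining of parallel cultures.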

[9] = read-out: Interleukin-8 (IL8), CXCL8 (gene 3576); experiment: BSK_SAg_IL8: BioMAP Diversity Plus: SAg Assay for Interleukin-8 (IL8) Biomarker Activity (AID 2283094); conditions: actives raise or lower the signal; primary human HUVEC with PBMC
Summary of the method: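 HUVEC/PBMC co-culture, 24 h post-dose; IL-8 by ELISA. Gain or loss of signal fitted bidirectionally vs DMSO baseline.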

[10] = biological target: human Opioid Receptor Mu (Opiate Mu), OPRM1 (gene 4988) (UniProt P35372); experiment: NVS_GPCR_hOpiate_mu: NovaScreen (NVS) G Protein-Coupled Receptor Assay for human Opioid Receptor Mu (Opiate Mu) (AID 2283290; active = hit-call score of the fitted dose curve at least 0.9, where 1 is the maximum;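 also: hits lower bound tracer signal versus DMSO meaning displacement of the ligand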)
Summary of the method: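 Radioligand displacement binding on membranes from CHO cells expressing the receptor, 2.5 h after dosing, filter-based scintillation counting; loss of signal vs DMSO baseline. Screened in duplicate at 25 uM, actives then run in concentration series.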

[11] = biological target: Androgen Receptor/SRC-1 Co-activator, AR (gene 367) (UniProt P10275); experiment: OT_AR_ARSRC1_0480: Odyssey Thera (OT) 8-hour HEK293T Protein-Complementation Assay for Androgen Receptor/SRC-1 Co-activator (AID 2283354; active = hit-call score of the fitted dose curve at least 0.9, where 1 is the maximum;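 also: hits raise the complementation signal above DMSO so AC50 marks enhancers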)
Summary of the method: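 After 8 h dosing, stably expressing HEK293T cells with split-Venus AR/SRC-1 fusions were imaged (488, 635nm). The 488nm N/C ratio per image gave the endpoint, analysed in the positive direction against DMSO.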

[12] = read-out: Alkaline Phosphatase, Placental (ALPP) gene, ALPP (gene 250); experiment: LTEA_HepaRG_ALPP: Life Technologies and Expression Analysis (LTEA) Assay for Alkaline Phosphatase, Placental (ALPP) gene using HepaRG (AID 2283468); conditions: actives raise or lower the signal; mRNA level, 48 h;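 also: differentiated human HepaRG liver cells in serum-free induction medium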
Summary of the method: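 HepaRG cells plated 48 h, then exposed in duplicate for 48 h in serum-free induction medium to 8-point half-log series from 100 uM in 0.5% DMSO. ALPP mRNA by TaqMan qRT-PCR, normalized to ACTB/GAPDH/POLR2A; bidirectional fit versus DMSO.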

CYP2E1 (gene 1571) = experiment: LTEA_HepaRG_CYP2E1: Life Technologies and Expression Analysis (LTEA) Assay for CYP2E1 using HepaRG (AID 2283485); conditions: actives raise or lower the signal; mRNA level, 48 h
Summary of the method: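 CYP2E1 transcript was measured by TaqMan qRT-PCR in human HepaRG cultures after 48 h chemical exposure (top 100 uM, half-log steps, 0.5% DMSO vehicle). Housekeeping-gene normalization; gain or loss fitted relative to DMSO baseline.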

[13] = read-out: Cytochrome P450 3A4 (Homo sapiens) (UniProt P08684); experiment: LTEA_HepaRG_CYP3A4: Life Technologies and Expression Analysis (LTEA) Assay for CYP3A4 using HepaRG (AID 2283487); conditions: actives raise or lower the signal; mRNA level, 48 h
Summary of the method: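 Differentiated HepaRG cells in serum-free induction medium exposed in duplicate for 48 h to 8 half-log concentrations up to 100 uM in 0.5% DMSO. CYP3A4 mRNA measured by qRT-PCR normalized to ACTB, GAPDH and POLR2A; bidirectional fit versus DMSO.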

[14] = read-out: Fatty Acid-Binding Protein 1 (FABP1), FABP1 (gene 2168); experiment: LTEA_HepaRG_FABP1: Life Technologies and Expression Analysis (LTEA) Assay for Fatty Acid-Binding Protein 1 (FABP1) using HepaRG (AID 2283494); conditions: actives raise or lower the signal; mRNA level, 48 h
Summary of the method: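 Values reflect bidirectional concentration-response fitting of FABP1 mRNA change against 0.5% DMSO controls. Human HepaRG cultures received eight half-log doses (top 100 uM) for 48 h; expression quantified by TaqMan qRT-PCR with housekeeping-gene normalization.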

[15] = read-out: Cytochrome P450 7A1 (Homo sapiens) (UniProt P22680); experiment: LTEA_HepaRG_CYP7A1: Life Technologies and Expression Analysis (LTEA) Assay for Cytochrome P450 7A1 (CYP7A1) using HepaRG (AID 2283496); conditions: actives raise or lower the signal; mRNA level, 48 h
Summary of the method: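 Using 0.5% DMSO as vehicle and baseline, chemicals were tested in duplicate over an 8-point range from 100 uM on HepaRG cells for 48 h; qRT-PCR signals were normalised to ACTB, GAPDH and POLR2A.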

[16] = read-out: Keratin 19 (KRT19), KRT19 (gene 3880); experiment: LTEA_HepaRG_KRT19: Life Technologies and Expression Analysis (LTEA) Assay for Keratin 19 (KRT19) using HepaRG (AID 2283512); conditions: actives raise or lower the signal; mRNA level, 48 h
Summary of the method: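 Differentiated HepaRG cells in serum-free induction medium, exposed 48 h in duplicate to 8 half-log concentrations up to 100 uM in 0.5% DMSO. KRT19 mRNA by qRT-PCR, normalized to ACTB, GAPDH, POLR2A; bidirectional fit vs DMSO.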

[17] = ACEA_AR_antagonist_AUC_viability: ACEA Biosciences xCELLigence Real-Time Cell Analysis on Androgen Receptor Antagonism for Viability (AID 2283776; active = hit-call score of the fitted dose curve at least 0.9, where 1 is the maximum;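 also: area under impedance growth curve at 80 h after dosing as viability; hits lower the growth signal relative to DMSO meaning cytotoxicity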)
Summary of the method: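 22Rv1 human prostate cancer cells were seeded on electrode plates, monitored overnight, then exposed to eight 1:4 dilutions from 100 uM final. Impedance-based growth kinetics at 80 h gave an AUC viability endpoint normalized to DMSO.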

[18] = CPHEA_Stoker_NIS_Cytotoxicity: Cytotoxicity Assessment for CPHEA's Radioactive Iodide Uptake (RAIU) Assay for Sodium/Iodide Symporter (NIS) Inhibition, Stoker and Laws Labs (AID 2283897; active = hit-call score of the fitted dose curve at least 0.9, where 1 is the maximum;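 also: active means loss of ATP signal versus DMSO meaning cytotoxicity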)
Summary of the method: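 hNIS-HEK293T-EPA cells, human NIS expressed in HEK293T, treated 2 h with chemicals (0.001–100 uM, 0.5% final DMSO). ATP content read by CellTiter-Glo luminescence; loss of signal analysed relative to DMSO.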

DIO1 (gene 1733) = experiment: CCTE_GLTED_hDIO1: CCTE's human Deiodinase 1 (DIO1) Inhibition Assay, Great Lakes Toxicology and Ecology Division (GLTED) Lab (AID 2283987; active = hit-call score of the fitted dose curve at least 0.9, where 1 is the maximum;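 also: isolated human DIO1 enzyme in a cell-free setup rather than cells; enzyme activity read as free iodide liberated from substrate via Sandell-Kolthoff colorimetry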)
Summary of the method: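 Cell-free human DIO1 enzyme incubated 3 h with test chemical; iodide freed from substrate then measured by Sandell-Kolthoff absorbance. Run in triplicate; loss of signal relative to DMSO taken as inhibition.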

[19] = CCTE_Shafer_MEA_acute_network_burst_percentage: CCTE's Neural Acute Assay for Percentage of Network Bursts, Shafer Lab (AID 2284022);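 also: curves fitted for loss so actives lower network burst percentage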
Summary of the method: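 Rat primary cortical neuron networks on 48-well MEA plates, DIV 13 or 15, treated acutely with compound (0.03-40 uM, at least three wells). Percent of spikes within network bursts compared between 40-min recordings before and during exposure at 37 C, expressed as percent change.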

DIO3 (gene 1735) = experiment: CCTE_GLTED_hDIO3: CCTE's human Deiodinase 3 (DIO3) Inhibition Assay, Great Lakes Toxicology and Ecology Division (GLTED) Lab (AID 2284055; active = hit-call score of the fitted dose curve at least 0.9, where 1 is the maximum;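 also: potency is for inhibition seen as loss of released iodide signal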)
Summary of the method: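 hDIO3 (adenovirus-expressed) + test chemical, 3 h incubation; free iodide quantified by Sandell-Kolthoff reaction, absorbance read-out. DMSO negative control, n=3.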

Measured: AC50

O=C1C2CC=CCC2C(=O)N1SC(Cl)(Cl)C(Cl)Cl (stereo not drawn)
active: [1] 15.7 µM | [2] 12.4 µM | [3] 2.92 µM | [4] 13.9 µM | [5] 17.3 µM | [6] 12.7 µM | CD69, CD69 (gene 969) 14.6 µM | [7] 12.8 µM | [8] 8.97 µM | [9] 13.4 µM | [10] 1.51 µM | [11] 16.5 µM | [12] 1.99 µM | CYP2E1 (gene 1571) 29.2 µM | [13] 12.8 µM | [14] 16.8 µM | [15] 19.8 µM | [16] 10.6 µM | [17] 3.11 µM | [18] 38.7 µM | DIO1 (gene 1733) 11.5 µM | [19] 36.9 µM | DIO3 (gene 1735) 50.5 µM
